## Antibody variant affinities, Ab-91 heavy chain, assay 2

Source: Engelhart et al. 2022 (doi:10.1038/s41597-022-01779-4), MIT Lincoln Laboratory and A-Alpha Bio; data file from the FLAb repository.

Antigen: PDVDLGDISGINAS, a 14-residue peptide of the SARS-CoV-2 spike HR2 region.

Parent scFv Ab-91: VL joined to VH by a (GGGGS)3 linker. Changes lie in the heavy chain CDRs alone.
VL: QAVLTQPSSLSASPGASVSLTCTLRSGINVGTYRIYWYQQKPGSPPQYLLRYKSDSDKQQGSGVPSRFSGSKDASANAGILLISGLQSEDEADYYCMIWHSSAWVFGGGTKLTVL
VH: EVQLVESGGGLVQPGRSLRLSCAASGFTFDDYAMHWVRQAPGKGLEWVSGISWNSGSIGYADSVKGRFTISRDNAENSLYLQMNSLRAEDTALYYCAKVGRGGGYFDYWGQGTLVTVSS

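Phage display of a naive human antibody library on the peptide gave the parent. AAYL51 was designed without a model: most single CDR substitutions and a random sample of double and triple ones. In AlphaSeq, yeast of one mating type display the scFv and yeast of the other type display the target. After mating in shaken culture at 30 °C for 16 h, diploids were selected and their barcode pairs sequenced. Each replicate has its own calibration line, from reference interactions of the BCL2 family. There are three technical replicates.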

Each variant is given by its three heavy chain CDRs, as the data file delimits them; those of the parent are GFTFDDYAMH, GISWNSGSIGYADSVK, VGRGGGYFDY.
Numbers give log10(Kd / nM), so 0 is 1 nM and 3 is 1 µM. Smaller is tighter.
Replicates are averaged; those with no signal do not enter the mean.
"nd" marks a missing value. The strain was present, yet no cells mated with the target were sequenced in any replicate, which points to weak or no binding.
Empty control strains, which show no peptide, gave a signal in 21% of pairings with library AAYL51; the median was 4.54 and 95% of these signals were weaker than 3.26. No background was subtracted.

mean log10 Kd (nM) | detected | CDR-H1 | CDR-H2 | CDR-H3
5.19 | 3/3 | GFTFDDTAMG | GILWNSGSIGYADSVK | VGRGGGYFDY
nd | 0/3 | GFTFDDYWMH | GISWNSGSIGYADSVK | VQRGGGYFLY
4.30 | 1/3 | GFDFDDYAMH | GISWNSGSIGYADSVK | VGRGGWYNDY
4.11 | 1/3 | GFTFYDYAMH | GHSWNSGSIGYADSVK | VWRGGGYFDY
4.44 | 1/3 | GFTFDDYALH | GISWNSGSIGYADSVP | VGRGEGYFDY
4.04 | 1/3 | GFTFDDYAMH | GASWNSGSIGYADSVK | VGRGGTYFDY
5.03 | 2/3 | GCTFDDYWMH | MISWNSGSIGYADSVK | VGRGGGYFDY
2.11 | 1/3 | GFTIDDYAMH | GISWISGNIGYADSVK | VGRGGGYFDY
nd | 0/3 | GFTKDDYAEH | GISWNSGSIGYADSVK | VGMGGGYFDY
nd | 0/3 | GFTFDDYAMH | GISINSGSIGYADSVK | VGRWGGYFDI
3.74 | 2/3 | GFTFDDIAMH | GISWNSGSTGYADSVK | VGRGGGYFDY
nd | 0/3 | GFTMDDYAMH | GGSWNSGSIGYADSVK | VGRGGGYNDY
nd | 0/3 | GFTFDDYAMC | GISWNMGSIGYADSVK | VGPGGGYFDY
nd | 0/3 | GFTFDDYAMH | GISWNSGSIGCYDSVK | VGRGGGYFDY
3.56 | 3/3 | GFTFDDYAMH | GISWNSGSIGMADSVK | VGRAGVYFDY
nd | 0/3 | GFTFDDYAMH | GISWPSGSIGKADSVK | VGRGGGYFDY
4.67 | 2/3 | GFTFDDYAQH | WISWNSGSIGYADSVK | VGRGGGYFDY
3.44 | 3/3 | GFTFDGYAMH | GIDWNSGSIGYADPVK | VGRGGGYFDY
nd | 0/3 | GFTFDDYAMT | GIQWNSGSIGYADSVK | VGRGGGYFDY
5.64 | 2/3 | CFTFDDYAMH | GISWHSGSIQYADSVK | VGRGGGYFDY
nd | 0/3 | GFTFDDYAGH | GISWNSGSIGYADQVK | AGRGGGYFDY
4.09 | 1/3 | GFTFDDYAMH | GINWNSGSIGYTDSVK | VGRGGGYFDY
4.51 | 1/3 | GFTFDDYAMH | CISWNSGSIGYADSVK | GGRDGGYFDY
nd | 0/3 | GRIIDDYAMH | GISWNSGSIGYADSVK | VGRGGGYFDY
nd | 0/3 | GFTFDDYAMH | GISWNSGSIGYAWSQK | VGRGGGYFDY
nd | 0/3 | GFTFDDYAMH | GISWNSGSCGKADSVK | VGRGGGCFDY
4.56 | 1/3 | SFTWDDYAMH | GISWNSGSIGYADSEK | VGRGGGYFDY
4.26 | 1/3 | GFTFDDYAMH | GISWEKGPIGYADSVK | VGRGGGYFDY
nd | 0/3 | GFTFDDYAMH | WICWNSGRIGYADSVK | VGRGGGYFDY
nd | 0/3 | GFTFDDYAMH | GASWFSGSMGYADSVK | VGRGGGYFDY
5.08 | 2/3 | GFTFDDYKFH | GISWNSGSIGYADSVK | VGRGRGYFDY
5.37 | 1/3 | GFTFDDYAMH | SISWNSGSIGYADSVK | VGRGGGYKDY
4.90 | 1/3 | GHTVDDYAMH | PISWNSGSIGYADSVK | VGRGGGYFDY
0.71 | 3/3 | GFTFDDYAMH | GISWNSGSIGYADSVF | VGRFGGYFDY
3.95 | 1/3 | GFTFDDYAMH | GISWNSGSIGYAHSVR | VGRGGGYFIY
4.70 | 2/3 | GRTFDDYAMH | GISWNSGSIGYADQVK | VGRGGGYFHY
nd | 0/3 | GQTFDDFAMH | GISWNSGSIGYADSVK | VGRGGGYHDY
3.55 | 3/3 | GFTFDDYAMH | GISWNSGSIGYADSVK | RGRAGGYFDY
4.30 | 1/3 | GFTFDDYAMH | GISWHSGSIGYAVSMK | VGRGGGYFDY
nd | 0/3 | GKTFDDYAMH | GISWNSGSIGYADSPK | VGRGGGGFDY
3.97 | 1/3 | GFTFDDYAMH | IISWNSGSPGYAISVK | VGRGGGYFDY
nd | 0/3 | GFTFDDYAMH | GISWQSGSIGYPDSVK | VGRGGGYQDY
4.75 | 2/3 | GFTADDYAFH | GISWNSGSIGMADSVK | VGRGGGYFDY
5.14 | 2/3 | GFTFDDYAMH | GISQNSGSIVYADSVK | VGRGGGYFDY
nd | 0/3 | GFTFDDYAMP | GSSMNSGSIGYADSVK | VGRGGGYFDY
3.79 | 3/3 | GFTFDDYAMH | GISWHSGSIGYADSVK | VGRGGFYFGY
nd | 0/3 | GFTFDDYPRH | GISWNSSSIGYADSVK | VGRGGGYFDY
nd | 0/3 | GFTFDDPAMH | GISWNSGSIGYADSVK | VGCGGEYFDY
4.76 | 3/3 | AFTFDDYAMH | GISWNSGSIRYADSVK | VGRKGGYFDY
5.69 | 1/3 | GFTFDDYAMH | GISWNSGSIGYPDSVK | VGRGGCYFDD
nd | 0/3 | GFTMDDYAMH | GISWNSGSIGYADSEK | SGRGGGYFDY
6.02 | 3/3 | GFTFDHYWMH | GISWNSGSIGYADSVK | VGRGGGYFDY
5.00 | 1/3 | GFTFDDYAMH | GIMWNSSSIGYVDSVK | VGRGGGYFDY
nd | 0/3 | GFTFDDYAMK | GISWPSGSIGYADSVK | VGRGTGYFDY
nd | 0/3 | GFTFDDTAMH | GISWNSGSIGYADSVK | VGRGGGYLDY
2.13 | 3/3 | GFTFDDYAMH | GISWNSCSFGYADSVK | VGRGGGYFDF
4.11 | 3/3 | GFTFDDYAMH | GISWNSGRIGYADSVN | VGRGGEYFDY
3.87 | 3/3 | GFKFDDYAMH | GISWNSGSIGYPDSVK | VGTGGGYFDY
4.08 | 2/3 | GFTFDDYAMH | GISWNSGSIGLAGSVK | VDRGGGYFDY
5.29 | 2/3 | GFTEDDYAMG | GISWNSASIGYADSVK | VGRGGGYFDY
nd | 0/3 | GFTFDDYAMH | GISWNSGSIPYADSVV | VGRGGGYEDY
3.13 | 2/3 | GFTFDDYAMH | GISWMSTSIGYADSVK | VGRGGGRFDY
nd | 0/3 | GFTFDDYAYH | GISWNSGTIGYADSVK | VGRGGGNFDY
4.01 | 1/3 | GFTFIDYAMH | GISWNWGSIGYADTVK | VGRGGGYFDY
5.50 | 2/3 | GFTFDIYMMH | GILWNSGSIGYADSVK | VGRGGGYFDY
4.79 | 2/3 | GFTFDDYFMH | GESINSGSIGYADSVK | VGRGGGYFDY
5.15 | 1/3 | GFTFLDPAMH | GQSWNSGSIGYADSVK | VGRGGGYFDY
0.98 | 3/3 | GFTFGDQAMH | GISWNSGSIGYGDSVK | VGRGGGYFDY
nd | 0/3 | GFTFKDYCMH | GISWNSGSQGYADSVK | VGRGGGYFDY
5.73 | 1/3 | GFTFDDYIFH | GISWNSGSIGYADSVK | VTRGGGYFDY
nd | 0/3 | GFTFDDYAMH | GILWNSGSIGYANSVK | VGRGGGGFDY
4.87 | 2/3 | GDTFDNYAMH | GISWNSGSIGYADSVL | VGRGGGYFDY
5.02 | 3/3 | RFTFDDYPMH | GISWNSGSIGYADSVK | VGRGGKYFDY
4.93 | 2/3 | GFTFDDYAMH | GISWNSGGIGYNDSVN | VGRGGGYFDY
3.13 | 3/3 | GFTFVDYAMH | GISWNSGSIGYADSVK | VGRGGGAFMY